Assay results from patent EP2342182B1 (H. Lundbeck A/S, priority 2008, dated 2010).

By UniProt entry, the sequences of proteins in these tests, tags left out.
UniProt P29371, whole entry: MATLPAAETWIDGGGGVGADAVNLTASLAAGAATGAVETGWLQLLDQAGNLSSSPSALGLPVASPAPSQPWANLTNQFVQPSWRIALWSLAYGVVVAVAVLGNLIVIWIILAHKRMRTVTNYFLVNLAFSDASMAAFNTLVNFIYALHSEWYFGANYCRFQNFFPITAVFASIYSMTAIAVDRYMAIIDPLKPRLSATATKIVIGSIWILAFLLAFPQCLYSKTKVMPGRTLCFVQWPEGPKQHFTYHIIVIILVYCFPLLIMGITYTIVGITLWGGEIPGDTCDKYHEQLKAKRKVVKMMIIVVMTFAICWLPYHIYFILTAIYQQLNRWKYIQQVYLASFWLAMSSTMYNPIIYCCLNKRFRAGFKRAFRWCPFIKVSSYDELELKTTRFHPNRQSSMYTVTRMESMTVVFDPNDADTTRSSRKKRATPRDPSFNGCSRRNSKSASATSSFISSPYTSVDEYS

Target: T1, human NK3 receptor (Homo sapiens, UniProt P29371)
T1 construct: expressed in transfected cells; membranes prepared from them
Assay: NK3 receptor efficacy and potency assay (FLIPR Calcium 4)
Type: cell-based
Conditions: agonist dose-response in BHK cells
Procedure: The assay was performed according to the FLIPR Calcium 4 Assay kit (Molecular Devices).
For efficacy and potency evaluation of compounds, these were diluted in HBSS buffer prior to test. […] The plates were subsequently analyzed for 5 minutes before the assay was terminated. The maximal increase in fluorescence over background following each ligand addition was determined.

EC85 concentration of NKB: ~4 nM
Substance: neurokinin B [NKB]
